According to PMC4281105 (2014):

How the values were obtained:
physchem = conditions: kinetic from dmso stock
hRSV strain Long = experiment: hRSV CPE assay; format: cell-based, human respiratory syncytial virus; conditions: HEp-2 CC50 / RSV CPE EC50
in vitro [1] = conditions: human, HEp-2 cells
[2] = for aqueous stability, PBS: percent parent remaining after 48 h in PBS; for aqueous stability, 1:1 PBS/ACN: percent parent remaining after 48 h in 1:1 PBS and acetonitrile
RSV = experiment: viral titer; format: cell-based, human respiratory syncytial virus; conditions: 10 µM
in vitro [3] = conditions: human, Fa2N-4 immortalized human hepatocytes
[4] = at each of 3 pH levels

Row | solubility (physchem; 23 °C, pH 7.4, aqueous buffer) [µM] | solubility (physchem; plasma or biological fluid) [µM] | improvement in PBS solubility over hit 2 [fold] | Compound | selectivity index (CC50/EC50) (hRSV strain Long) | CC50 at 5 days (in vitro [1]) [µM] | CC50 at 3 days (in vitro [1]) [µM] | aqueous stability, PBS [2] [%] | viral titer reduction, fold as compared to control (RSV) | CC50 (in vitro [3]) [µM] | aqueous stability, 1:1 PBS/ACN [2] [%] | passive permeability in words [4]
1 | 1.4 (≈ 0.701 µg/mL) | 7.2 (≈ 3.6 µg/mL) | 14 | O=C(NCC1COC1)c1ccc(Cn2c(=O)c3ccccc3n(Cc3ccc([N+](=O)[O-])cc3)c2=O)cc1 [Compound 43, 4-((1-(4-Nitrobenzyl)-2,4-dioxo-1,2-dihydroquinazolin-3(4H)-yl)-methyl)-N-(oxetan-3-ylmethyl)benzamide] | >38.5 | > 50 |  |  |  |  |  | 
2 |  |  |  | COCCCNC(=O)c1ccc(Cn2c(=O)c3ccccc3n(Cc3ccc(C(C)C)cc3)c2=O)cc1 [Compound 19, 4-((1-(4-isopropylbenzyl)-2,4-dioxo-1,2-dihydroquinazolin-3(4H)-yl)methyl)-N-(3-methoxypropyl)benzamide] | > 100 and >166.7 |  | > 50 | 27 | > 400,000 fold | > 30 |  | 
3 |  | 2.5 (≈ 1.18 µg/mL) |  | COCCCNC(=O)c1ccc(Cn2c(=O)c3ccccc3n(Cc3ccc(C)cc3)c2=O)cc1 [Compound 2, N-(3-Methoxypropyl)-4-((1-(4-methylbenzyl)-2,4-dioxo-1,2-dihydroquinazolin-3(4H)-yl)methyl)benzamide] | ~ 24 and >23.8 | > 50 |  | 88.1 | ~ 14,000 fold |  | 94.0 | 
4 | 0.3 (≈ 0.152 µg/mL) |  |  | CC(C)c1ccc(Cn2c(=O)n(Cc3ccc(C(=O)NCc4ccco4)cc3)c(=O)c3ccccc32)cc1 [Compound 48, N-(Furan-2-ylmethyl)-4-((1-(4-isopropylbenzyl)-2,4-dioxo-1,2-dihydroquinazolin-3(4H)-yl)methyl)benzamide] | >41.7 | > 50 |  |  |  |  |  | 
5 |  |  |  | CNC(=O)c1ccc(Cn2c(=O)c3ccccc3n(Cc3ccc(C)cc3)c2=O)cc1 [Compound 34, N-Methyl-4-((1-(4-methylbenzyl)-2,4-dioxo-1,2-dihydroquinazolin-3(4H)-yl)methyl)benzamide] | 21.1 | 45.3 ± 1.7 |  |  |  |  |  | 
6 |  |  |  | COCCCNC(=O)c1ccc(Cn2c(=O)c3ccccc3n(Cc3ccc(C#N)cc3)c2=O)cc1 [Compound 17, 4-((1-(4-Cyanobenzyl)-2,4-dioxo-1,2-dihydroquinazolin-3(4H)-yl)methyl)-N-(3-methoxypropyl)benzamide] | 7.7 | 12.5 ± 1.2 |  |  |  |  |  | 
7 |  |  |  | Cc1ccc(Cn2c(=O)n(Cc3ccc(C(=O)N4CCCCC4)cc3)c(=O)c3ccccc32)cc1 [Compound 33, 1-(4-Methylbenzyl)-3-(4-(piperidine-1-carbonyl)benzyl)-quinazoline-2,4(1H,3H)-dione] | <0.2 | 7.3 ± 1.3 |  |  |  |  |  | 

Row | Compound | solubility (physchem; 23 °C, pH 7.4, aqueous buffer) [µM] | solubility (physchem; plasma or biological fluid) [µM] | improvement in PBS solubility over hit 2 [fold] | selectivity index (CC50/EC50) (hRSV strain Long) | CC50 at 5 days (in vitro [1]) [µM] | CC50 at 3 days (in vitro [1]) [µM] | aqueous stability, PBS [2] [%] | viral titer reduction, fold as compared to control (RSV) | CC50 (in vitro [3]) [µM] | aqueous stability, 1:1 PBS/ACN [2] [%] | passive permeability in words [4]
8 | COCCCNC(=O)c1ccc(Cn2c(=O)c3ccccc3n(Cc3ccc([N+](=O)[O-])cc3)c2=O)cc1 [Compound 15, N-(3-Methoxypropyl)-4-((1-(4-nitrobenzyl)-2,4-dioxo-1,2-dihydroquinazolin-3(4H)-yl)methyl)benzamide] | 1.3 (≈ 0.653 µg/mL) |  |  | >100.0 | > 50 |  | 83.4 | > 400,000 fold | > 50 | 94.9 | Moderate to good

≈ marks a conversion by molar mass, not a printed value. Where “and” joins values, the source holds several entries; their conditions need not be identical. Identical values can stand only once.
